## Antibody variant affinities, Ab-91 heavy chain, assay 2

Target: peptide PDVDLGDISGINAS, taken from heptad repeat 2 (HR2) of SARS-CoV-2 spike.

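AAYL51 was designed without a model: most single CDR substitutions and a random sample of double and triple ones. The scFvs were displayed on barcoded MATa yeast, the peptide on MATalpha yeast. After mating in shaken culture at 30 °C for 16 h, diploids were selected and their barcode pairs sequenced. Each replicate has its own calibration line, from reference interactions of the BCL2 family. Each pool was mated in three replicate cultures.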

The variants keep the light chain, the linker and the frameworks of Ab-91 (scFv order VL, three GGGGS repeats, VH).
VL: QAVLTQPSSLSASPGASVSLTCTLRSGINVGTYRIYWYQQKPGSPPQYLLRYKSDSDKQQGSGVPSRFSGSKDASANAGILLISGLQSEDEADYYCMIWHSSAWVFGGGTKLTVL
VH: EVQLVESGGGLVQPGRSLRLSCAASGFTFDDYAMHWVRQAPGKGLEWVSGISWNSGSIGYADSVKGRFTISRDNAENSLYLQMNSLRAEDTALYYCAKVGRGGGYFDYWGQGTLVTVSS

Sequences are complete VH domains. The read-out is the apparent dissociation constant on a log10 scale (nM): the lower, the stronger. "ND" means that the variant was in the library but no mating with the target was seen in that replicate; the authors take this as a sign of poor binding, and no number exists.

{"VH": "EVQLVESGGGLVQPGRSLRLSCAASGFTFDDFAMFWVRQAPGKGLEWVSGISWNSGSIGYADSVKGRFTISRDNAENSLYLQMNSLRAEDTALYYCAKVGRGGGSFDYWGQGTLVTVSS", "replicates, log10 nM": "4.62 / 4.83 / 5.66", "control signals": "8/9 (5.18)"}
{"VH": "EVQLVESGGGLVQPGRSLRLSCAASGFTFDIAAMHWVRQAPGKGLEWVSGISWNSGSIGYADSVKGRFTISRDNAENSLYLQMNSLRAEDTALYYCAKVNRGGGYFDYWGQGTLVTVSS", "replicates, log10 nM": "ND / ND / ND", "control signals": "0/9"}
{"VH": "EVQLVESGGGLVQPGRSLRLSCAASGFWFDDYAEHWVRQAPGKGLEWVSGISWNSGSIGYADSVKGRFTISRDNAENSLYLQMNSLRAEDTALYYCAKVKRGGGYFDYWGQGTLVTVSS", "replicates, log10 nM": "ND / ND / ND", "control signals": "0/9"}
{"VH": "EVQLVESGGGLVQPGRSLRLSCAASGFTFDDYVMHWVRQAPGKGLEWVSDISWNSGSIGVADSVKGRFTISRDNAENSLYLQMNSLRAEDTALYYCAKVGRGGGYFDYWGQGTLVTVSS", "replicates, log10 nM": "ND / ND / ND", "control signals": "0/9"}
{"VH": "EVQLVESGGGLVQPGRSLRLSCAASGFTFDDYDCHWVRQAPGKGLEWVSGISWASGSIGYADSVKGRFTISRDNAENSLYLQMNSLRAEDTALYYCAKVGRGGGYFDYWGQGTLVTVSS", "replicates, log10 nM": "5.45 / 6.00 / 5.60", "control signals": "5/9 (4.53)"}
{"VH": "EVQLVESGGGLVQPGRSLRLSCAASFFTFDDYAMHWVRQAPGKGLEWVSGISWNSGEIGYADSVKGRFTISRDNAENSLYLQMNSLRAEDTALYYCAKVGRGGGYFDYWGQGTLVTVSS", "replicates, log10 nM": "3.05 / 3.23 / 2.62", "control signals": "0/9"}
{"VH": "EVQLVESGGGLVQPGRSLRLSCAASGFTADEQAMHWVRQAPGKGLEWVSGISWNSGSIGYADSVKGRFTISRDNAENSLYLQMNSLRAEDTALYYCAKVGRGGGYFDYWGQGTLVTVSS", "replicates, log10 nM": "4.96 / 4.02 / 5.35", "control signals": "1/9 (4.05)"}
{"VH": "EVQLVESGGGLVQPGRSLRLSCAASGFTFDDYAMHWVRQAPGKGLEWVSQISWNSGSIGYPDSSKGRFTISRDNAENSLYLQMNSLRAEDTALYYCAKVGRGGGYFDYWGQGTLVTVSS", "replicates, log10 nM": "ND / 4.43 / ND", "control signals": "3/9 (4.23)"}
{"VH": "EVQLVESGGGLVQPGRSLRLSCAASGFTFDDYAMHWVRQAPGKGLEWVSGISWNSGSIGYEDFVKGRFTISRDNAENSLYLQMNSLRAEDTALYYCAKVGRGGGYFDYWGQGTLVTVSS", "replicates, log10 nM": "ND / ND / ND", "control signals": "0/9"}
{"VH": "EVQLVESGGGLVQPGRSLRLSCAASGFTFDDYAMHWVRQAPGKGLEWVSGISWNTGSIGYWPSVKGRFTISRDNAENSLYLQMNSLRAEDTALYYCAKVGRGGGYFDYWGQGTLVTVSS", "replicates, log10 nM": "5.84 / 5.32 / ND", "control signals": "4/9 (4.72)"}
{"VH": "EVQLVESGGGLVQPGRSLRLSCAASGFTFGDYAMHWVRQAPGKGLEWVSGISWNSGKIGYADSVKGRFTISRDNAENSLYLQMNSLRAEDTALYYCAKVGRGGGYFDYWGQGTLVTVSS", "replicates, log10 nM": "3.33 / 3.75 / 3.16", "control signals": "5/9 (4.63)"}
{"VH": "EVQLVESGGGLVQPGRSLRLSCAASGFTFDDEAMTWVRQAPGKGLEWVSGISWNSGFIGYADSVKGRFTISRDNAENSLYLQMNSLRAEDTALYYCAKVGRGGGYFDYWGQGTLVTVSS", "replicates, log10 nM": "3.83 / ND / ND", "control signals": "3/9 (5.33)"}
{"VH": "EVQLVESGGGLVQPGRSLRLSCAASGFSFDDYAMHWVRQAPGKGLEWVSGISWNWGSIGYADSVKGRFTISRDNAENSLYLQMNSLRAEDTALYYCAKVGRIGGYFDYWGQGTLVTVSS", "replicates, log10 nM": "ND / 6.00 / ND", "control signals": "5/9 (3.98)"}
{"VH": "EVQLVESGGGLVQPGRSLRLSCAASGFTFDDYAMHWVRQAPGKGLEWVSGISWNSLSIGAADSVKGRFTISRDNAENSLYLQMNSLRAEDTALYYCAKVTRGGGYFDYWGQGTLVTVSS", "replicates, log10 nM": "2.21 / 2.22 / 2.23", "control signals": "4/9 (4.51)"}
{"VH": "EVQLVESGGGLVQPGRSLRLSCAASGFTFDDYAMHWVRQAPGKGLEWVSGSSWNSGSIGYADSVKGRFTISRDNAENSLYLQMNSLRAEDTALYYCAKVGRGGGYFDYWGQGTLVTVSS", "replicates, log10 nM": "5.34 / 4.44 / ND", "control signals": "2/9 (5.32)"}
{"VH": "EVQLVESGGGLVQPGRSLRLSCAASGFTFDDYAMHWVRQAPGKGLEWVSGISWNSGSIGYADSVKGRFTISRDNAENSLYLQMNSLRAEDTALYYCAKVGRGYGHFDYWGQGTLVTVSS", "replicates, log10 nM": "ND / ND / ND", "control signals": "0/9"}
{"VH": "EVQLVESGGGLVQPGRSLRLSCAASGFQFDDYAMHWVRQAPGKGLEWVSGICWRSGSIGYADSVKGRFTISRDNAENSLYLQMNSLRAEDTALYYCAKVGRGGGYFDYWGQGTLVTVSS", "replicates, log10 nM": "ND / 5.30 / ND", "control signals": "2/9 (4.41)"}
{"VH": "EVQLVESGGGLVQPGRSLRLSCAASGFTFDDYAMHWVRQAPGKGLEWVSGISWNSGSIGYKDSVKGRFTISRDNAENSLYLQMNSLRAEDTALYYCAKVGLGGGYFDNWGQGTLVTVSS", "replicates, log10 nM": "ND / ND / ND", "control signals": "0/9"}

For reference, 3 entries of the list once more:

VH,"replicates, log10 nM",control signals
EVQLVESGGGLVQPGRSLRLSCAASGFTFGDYAMHWVRQAPGKGLEWVSGISWNSGKIGYADSVKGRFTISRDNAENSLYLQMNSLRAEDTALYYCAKVGRGGGYFDYWGQGTLVTVSS,3.33 / 3.75 / 3.16,5/9 (4.63)
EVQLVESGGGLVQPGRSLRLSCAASGFTFDDYDCHWVRQAPGKGLEWVSGISWASGSIGYADSVKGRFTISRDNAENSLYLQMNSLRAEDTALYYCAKVGRGGGYFDYWGQGTLVTVSS,5.45 / 6.00 / 5.60,5/9 (4.53)
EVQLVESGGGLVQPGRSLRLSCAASGFWFDDYAEHWVRQAPGKGLEWVSGISWNSGSIGYADSVKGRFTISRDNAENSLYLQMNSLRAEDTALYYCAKVKRGGGYFDYWGQGTLVTVSS,ND / ND / ND,0/9

In this assay the parent's reference entry averaged 1.86; its copy inside this library read 0.88. Background: pairings of library AAYL51 with three empty control strains gave a value in 21% of cases (median 4.54, 5th percentile 3.26). Values in that range, when seen in few replicates, are hard to tell from nonspecific mating. For each scFv, signals with the empty controls are counted beside the result, with their mean in brackets.

Values reported by Engelhart et al. 2022, doi:10.1038/s41597-022-01779-4 (FLAb copy).